# Test results: patent publication US8541572B2
# Protein sequences, listed by entry. Tags and fused reporters are not part of them. Residues count along the entry.
# UniProt P78536, 215-477 S266A/N452Q: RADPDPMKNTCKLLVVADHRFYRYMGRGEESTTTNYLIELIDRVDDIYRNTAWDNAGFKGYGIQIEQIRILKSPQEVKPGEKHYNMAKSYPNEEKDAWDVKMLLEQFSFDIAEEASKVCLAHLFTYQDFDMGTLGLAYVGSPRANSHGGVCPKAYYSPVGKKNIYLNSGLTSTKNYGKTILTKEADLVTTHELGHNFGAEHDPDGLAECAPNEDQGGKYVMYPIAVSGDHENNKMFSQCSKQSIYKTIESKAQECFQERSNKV
# Target: recombinant human TACE catalytic domain (rhTACEc) (Homo sapiens (Human), UniProt P78536, N452Q/S266A)
# Experiment: TACE kinetic FRET assay (cleavage of internally quenched peptide substrate TNF-FRET 2), Ki
# [1] = recombinant human TACE catalytic domain, FRET assay
Structure (SMILES),Ki [1] [nM],further results
COc1ccc2c(c1)C(=O)N(C[C@@]1(C#Cc3ccc(C4(C(N)=O)CC4)cc3)NC(=O)NC1=O)C2 [Compound 2260],,Ki (TACE): 0.28 nM
CCN1CCN(c2ccc(OC)c(-c3ccc(C#C[C@]4(CN5Cc6ccc(OC)cc6C5=O)NC(=O)NC4=O)cc3)n2)CC1 [Compound 972],0.46,
COc1ccc2c(c1)C(=O)N(C[C@@]1(C#Cc3ccc(C(=NO)N4[C@H](C)CNC[C@@H]4C)cc3)NC(=O)NC1=O)C2 [Compound 2294],,Ki: 0.68 nM
COc1ccc2c(c1)C(=O)N(CC1(C#Cc3cccc4c3CCC43NC(=O)NC3=O)NC(=O)NC1=O)C2 (stereo not drawn) [Compound 1318],0.53,
COc1ccc2c(c1)C(=O)N(C[C@@]1(C#Cc3ccc(-c4noc(C(C)C)n4)cc3)NC(=O)NC1=O)C2 [Compound 1505],,Ki: 0.92 nM
COc1ccc2c(c1)C(=O)N(C[C@@]1(C#Cc3cncc(C(=NO)N4CCCN(C)CC4)c3)NC(=O)NC1=O)C2 [Compound 924],,Ki: 0.71 nM
COc1ccc2c(c1)C(=O)N(C[C@@]1(C#Cc3ccc(N4CCCCC4)nc3)NC(=O)NC1=O)C2 [Compound 1509],0.19,
COc1ccc2c(c1F)C(=O)N(C[C@@]1(C#Cc3ccc(-c4nc(-c5cnn(C)c5)ccc4O)c(F)c3)NC(=O)NC1=O)C2 [Compound 987],0.0627,
COc1ccc2c(c1F)C(=O)N(C[C@@]1(C#Cc3ccc(-c4cccc(N5CCOCC5)n4)cc3)NC(=O)NC1=O)C2 [Compound 995],0.512,
COc1ccc2c(c1)C(=O)N(C[C@@]1(C#Cc3ccc(-c4noc(C)n4)cc3)NC(=O)NC1=O)C2 [Compound 2253],,Ki (TACE): 0.27 nM
COc1ccc2c(c1)C(=O)N(C[C@@]1(C#Cc3ccc(C4(C)NC(=O)NC4=O)s3)NC(=O)NC1=O)C2 (stereo partly drawn) [Compound 907],,Ki (TACE): 0.44 nM
CCN1CCN(c2cccc(-c3ccc(C#C[C@]4(CN5Cc6ccc(OC)c(F)c6C5=O)NC(=O)NC4=O)cc3F)n2)CC1 [Compound 992],0.35,
COC(=O)c1scc(-c2ccc(C#C[C@]3(CN4Cc5ccc(OC)cc5C4=O)NC(=O)NC3=O)cc2)c1O [Compound 1305],,Ki: 1.71 nM
COc1ccc2c(c1F)C(=O)N(C[C@@]1(C#Cc3ccc(-c4nc(N5CCC(=O)CC5)ccc4O)cc3)NC(=O)NC1=O)C2 [Compound 1003],0.0826,
COc1ccc2c(c1)C(=O)N(C[C@@]1(C#Cc3ccc4c(c3)CCCC43NC(=O)NC3=O)NC(=O)NC1=O)C2 (stereo partly drawn) [Compound 2312],,Ki (TACE): 0.29 nM
COc1ccc2c(c1F)C(=O)N(C[C@@]1(C#Cc3ccc(C4(C#N)CCN(C)CC4)cc3)NC(=O)NC1=O)C2 [Compound 1313],0.28,
COc1ccc2c(c1)C(=O)N(C[C@@]1(C#Cc3ccc(C(=NO)N4CCN(C)CC4)cc3)NC(=O)NC1=O)C2 [Compound 943],,Ki: 0.083 nM
CCN1CCN(c2cccc(-c3ccc(C#C[C@]4(CN5Cc6ccc(OC)c(F)c6C5=O)NC(=O)NC4=O)cc3)n2)CC1 [Compound 991],0.28,
CCCCN1CCN(C(=NO)c2ccc(C#C[C@]3(CN4Cc5ccc(OC)cc5C4=O)NC(=O)NC3=O)cc2)CC1 [Compound 925],,Ki (TACE): 0.093 nM
COc1ccc2c(c1)C(=O)N(C[C@@]1(C#Cc3ccc(-c4c(C)n[nH]c4N)cc3)NC(=O)NC1=O)C2 [Compound 1303],0.36,
CCN1CCN(Cc2ccc(C#C[C@]3(CN4Cc5ccc(OC)cc5C4=O)NC(=O)NC3=O)cn2)CC1 [Compound 977],0.55,
COc1ccc2c(c1F)C(=O)N(C[C@@]1(C#Cc3ccc(CN4CCCCC4)nc3)NC(=O)NC1=O)C2 [Compound 967],1.21,
COc1ccc2c(c1)C(=O)N(C[C@@]1(C#Cc3ccc(-c4cn[nH]c4)nc3)NC(=O)NC1=O)C2 [Compound 2292],,Ki (TACE): 0.19 nM
COc1ccc2c(c1)C(=O)N(C[C@@]1(C#Cc3cccnc3-c3cnn(C)c3)NC(=O)NC1=O)C2 [Compound 2263],,Ki (TACE): 0.2 nM

Structure (SMILES),Ki [1] [nM],further results
COc1ccc2c(c1)C(=O)N(C[C@@]1(C#Cc3ccc(Nc4c(N)c(=O)c4=O)cc3)NC(=O)NC1=O)C2 [Compound 1308],0.19,
COc1ccc(N2CCC2=O)nc1C#C[C@]1(CN2Cc3ccc(OC)c(F)c3C2=O)NC(=O)NC1=O [Compound 1508],0.426,
COc1ccc2c(c1)C(=O)N(C[C@@]1(C#Cc3ccc(-c4c(C)nn(C)c4C)nc3)NC(=O)NC1=O)C2 [Compound 2268],,Ki (TACE): 0.21 nM
COc1ccc2c(c1F)C(=O)N(C[C@@]1(C#Cc3ccc(-c4cccc(N5CCN(C6CCCCC6)CC5)n4)cc3)NC(=O)NC1=O)C2 [Compound 993],0.835,
COCCN1CCN(c2ccc(OC)c(C#C[C@]3(CN4Cc5ccc(OC)cc5C4=O)NC(=O)NC3=O)n2)CC1 [Compound 1507],1.77,
COc1ccc2c(c1F)C(=O)N(C[C@@]1(C#Cc3cccnc3)NC(=O)NC1=O)C2 [Compound 2267],,Ki (TACE): 0.11 nM
COc1ccc2c(c1)C(=O)N(C[C@@]1(C#Cc3ccc(C(=O)N4CCC(N5CCCCC5)CC4)cc3)NC(=O)NC1=O)C2 [Compound 963],0.523,
CSc1ccc2c(c1)C(=O)N(C[C@@]1(C#Cc3cccnc3)NC(=O)NC1=O)C2 [Compound 312],0.391,
COc1ccc2c(c1)C(=O)N(C[C@@]1(C#Cc3ccc(C(=NO)N4CCOCC4)s3)NC(=O)NC1=O)C2 [Compound 952],,Ki: 0.21 nM
COc1ccc2c(c1)C(=O)N(C[C@@]1(C#Cc3ccc(-c4ncccc4O)cc3)NC(=O)NC1=O)C2 [Compound 934],,Ki (TACE): 0.074 nM
COc1ccc2c(c1)C(=O)N(C[C@@]1(C#Cc3ccc(C4=NCCN4)c(C)c3)NC(=O)NC1=O)C2 [Compound 1140],0.75,
CCN1CCN(Cc2ccc(C#C[C@]3(CN4Cc5ccc(OC)cc5C4=O)NC(=O)NC3=O)cc2)CC1 [Compound 933],,Ki (TACE): 0.29 nM
COc1ccc2c(c1)C(=O)N(C[C@@]1(C#Cc3ccc(-c4ccc(-c5cccc(N6CCSCC6)n5)cc4)cc3)NC(=O)NC1=O)C2 [Compound 1000],10.3,
CCN1CCN(C(=O)c2ccc(C#C[C@]3(CN4Cc5ccc(OC)c(F)c5C4=O)NC(=O)NC3=O)cc2)CC1 [Compound 964],0.288,
COc1ccc2c(c1)C(=O)N(C[C@@]1(C#Cc3ncc(C(=NO)N4CCN(c5cnccn5)CC4)cc3OC)NC(=O)NC1=O)C2 [Compound 1924],,Ki: 0.25 nM
COc1ccc2c(c1)C(=O)N(C[C@@]1(C#Cc3ccc(-c4ccccc4O)cc3)NC(=O)NC1=O)C2 [Compound 969],0.313,
CCN1CCN(c2ccc(O)c(-c3ccc(C#C[C@]4(CN5Cc6ccc(OC)cc6C5=O)NC(=O)NC4=O)cc3F)n2)CC1 [Compound 976],0.0988,
COc1ccc2c(c1)C(=O)N(C[C@@]1(C#Cc3ccc(C(C)(C)C(N)=O)cc3)NC(=O)NC1=O)C2 [Compound 2262],,Ki (TACE): 0.24 nM
COc1ccc2c(c1)C(=O)N(C[C@@]1(C#Cc3ccc(C(=NO)C4CCN(C)CC4)cc3)NC(=O)NC1=O)C2 [Compound 2246],,Ki: 0.28 nM
COc1ccc2c(c1)C(=O)N(C[C@@]1(C#Cc3ccc4c(CN(C)C)n[nH]c4c3)NC(=O)NC1=O)C2 [Compound 728],0.325,
COc1ccc2c(c1)C(=O)N(C[C@@]1(C#Cc3nc(-c4ccc(N5CCNCC5)nc4)ccc3OC)NC(=O)NC1=O)C2 [Compound 1511],0.62,
COc1ccc2c(c1)C(=O)N(C[C@@]1(C#Cc3nc(N4CC[C@H](O)C4=O)ccc3OC)NC(=O)NC1=O)C2 [Compound 1504],,Ki: 0.98 nM
CCN1CCN(C(=O)c2ccc(C#C[C@]3(CN4Cc5ccc(OC)cc5C4=O)NC(=O)NC3=O)cc2)CC1 [Compound 960],0.364,

# The next lines start with results.
Ki [1] [nM],Structure (SMILES),further results
0.11,COc1ccc2c(c1)C(=O)N(C[C@@]1(C#Cc3ccccc3C=O)NC(=O)NC1=O)C2 [Compound 1918],
0.03,COc1ccc2c(c1)C(=O)N(C[C@@]1(C#Cc3cncc(-c4cn[nH]c4)c3)NC(=O)NC1=O)C2 [Compound 2207],
0.13,CCN1CCN(C(=O)C2CCC(=O)N2c2ccc(C#C[C@]3(CN4Cc5ccc(OC)cc5C4=O)NC(=O)NC3=O)cc2)CC1 (stereo partly drawn) [Compound 1901],
0.73,COc1ccc2c(c1)C(=O)N(C[C@@]1(C#Cc3nc(-c4cccc(O)c4)ccc3OC)NC(=O)NC1=O)C2 [Compound 1922],
0.63,COc1ccc2c(c1)C(=O)N(C[C@@]1(C#Cc3ccc(C4=NCCN4)cc3)NC(=O)NC1=O)C2 [Compound 2222],
0.81,COc1ccc2c(c1)C(=O)N(C[C@@]1(C#Cc3ccc(C4(CN5Cc6cc(O)ccc6C5=O)NC(=O)NC4=O)cc3)NC(=O)NC1=O)C2 (stereo partly drawn) [Compound 2216],
0.38,COc1ccc2c(c1F)C(=O)N(C[C@@]1(C#Cc3ccc(N4C(=O)CCC4C(=O)NC4CC4)cc3)NC(=O)NC1=O)C2 (stereo partly drawn) [Compound 1904],
0.55,COc1ccc2c(c1)C(=O)N(C[C@@]1(C#Cc3ccc(CCN)cc3)NC(=O)NC1=O)C2 [Compound 2202],
0.22,COc1ccc2c(c1F)C(=O)N(C[C@@]1(C#Cc3ccc4c(c3)CCC43NC(=O)NC3=O)NC(=O)NC1=O)C2 (stereo partly drawn) [Compound 2214],
0.43,COc1ccc2c(c1)C(=O)N(C[C@@]1(C#Cc3cnc(N4CCC(=O)CC4)nc3N)NC(=O)NC1=O)C2 [Compound 2210],
0.22,COc1ccc2c(c1)C(=O)N(C[C@@]1(C#Cc3cnc(N)nc3N)NC(=O)NC1=O)C2 [Compound 2209],
0.17,COc1ccc2c(c1)C(=O)N(C[C@@]1(C#Cc3ccc(NC(=O)C4CCN(C)CC4)cc3)NC(=O)NC1=O)C2 [Compound 1909],
0.56,COc1ccc2c(c1)C(=O)N(C[C@@]1(C#Cc3cnc4nc(O)oc4c3)NC(=O)NC1=O)C2 [Compound 2244],
0.5,COc1ccc2c(c1)C(=O)N(C[C@@]1(C#Cc3ccc(N4CCC(=O)CC4)nc3)NC(=O)NC1=O)C2 [Compound 2211],
3.71,COc1ccc2c(c1)C(=O)N(C[C@@]1(C#Cc3nc(-c4n[nH]c(=O)n4C4CCN(C)CC4)ccc3OC)NC(=O)NC1=O)C2 [Compound 1900],
2.35,COc1ccc2c(c1Cl)C(=O)N(CC1(C#Cc3cccnc3)NC(=O)NC1=O)C2 (stereo not drawn) [Compound 2247],
0.27,CCN1CCN(C(=NO)c2cnc(C#C[C@]3(CN4Cc5ccc(OC)cc5C4=O)NC(=O)NC3=O)c(OC)c2)CC1 [Compound 1923],
0.43,COc1ccc2c(c1)C(=O)N(C[C@@]1(C#Cc3ccc(-n4c(-c5cccnc5)n[nH]c4=O)cc3)NC(=O)NC1=O)C2 [Compound 1916],
1.09,COc1ccc2c(c1)C(=O)N(C[C@@]1(C#Cc3ccc(OC)nc3OC)NC(=O)NC1=O)C2 [Compound 2230],

# Where two headings read alike, the source gives them in different places.
